Test system: FcγIIa (R131 allele)
Test: Reverse ELISA: inhibition of FcR binding to PAP immune complex, FcγIIa (R131 allele)
Settings: for OD405 FcγIIa (R131 allele): PAP pre-incubated 1 h with peptide, no inhibitor 1.599

Molecule	OD405 FcγIIa (R131 allele)	overall inhibition of FcR binding to PAP (rank in words) (overall across FcγIIa, FcγIIb and FcγIIIa of Table 2)
CC(C)C[C@@H]1NC(=O)[C@H](Cc2c[nH]cn2)NC(=O)[C@H](Cc2c[nH]c3ccccc23)NC(=O)[C@H](C)NC(=O)[C@@H](NC(=O)[C@H](CC(=O)O)NC(=O)[C@@H]2CCCN2C(=O)[C@@H]2CCCN2C(=O)[C@H](C)N)CSSC[C@@H](C(=O)N[C@H](C(=O)O)[C@@H](C)O)NC(=O)[C@H](Cc2c[nH]c3ccccc23)NC(=O)[C@H](C(C)C)NC(=O)[C@H](CC(C)C)NC(=O)[C@H](CCC(=O)O)NC(=O)CNC1=O [SEQ ID NO:20]	0.509	greatest overall inhibition of FcR binding to PAP
Asp-Cys-Ala-Phe-His-Leu-Gly-Glu-Leu-Val-Trp-Cys-Thr	0.660	
Ala-Pro-Pro-Cys-Ala-Trp-His-Leu-Gly-Glu-Leu-Val-Trp-Cys-Thr	0.658	
Ala-Pro-Pro-Cys-Ala-Arg-His-Leu-Gly-Glu-Leu-Val-Trp-Cys-Thr	0.956	
Asp-Cys-Ala-Trp-His-Leu-Gly-Glu-Leu-Val-Trp-Cys-Thr	0.561	
Ala-Pro-Pro-Cys-Ala-Phe-His-Leu-Gly-Glu-Leu-Val-Trp-Cys-Thr	0.605	
